Results on one compound are retold here after patent publication US9487488B2, “Sulfonamide compound” (MITSUBISHI TANABE PHARMA CORPORATION, priority 2012, dated 2016).

The chains behind the UniProt entries cited, without tags or fusion partners.
UniProt Q7Z2W7, whole entry: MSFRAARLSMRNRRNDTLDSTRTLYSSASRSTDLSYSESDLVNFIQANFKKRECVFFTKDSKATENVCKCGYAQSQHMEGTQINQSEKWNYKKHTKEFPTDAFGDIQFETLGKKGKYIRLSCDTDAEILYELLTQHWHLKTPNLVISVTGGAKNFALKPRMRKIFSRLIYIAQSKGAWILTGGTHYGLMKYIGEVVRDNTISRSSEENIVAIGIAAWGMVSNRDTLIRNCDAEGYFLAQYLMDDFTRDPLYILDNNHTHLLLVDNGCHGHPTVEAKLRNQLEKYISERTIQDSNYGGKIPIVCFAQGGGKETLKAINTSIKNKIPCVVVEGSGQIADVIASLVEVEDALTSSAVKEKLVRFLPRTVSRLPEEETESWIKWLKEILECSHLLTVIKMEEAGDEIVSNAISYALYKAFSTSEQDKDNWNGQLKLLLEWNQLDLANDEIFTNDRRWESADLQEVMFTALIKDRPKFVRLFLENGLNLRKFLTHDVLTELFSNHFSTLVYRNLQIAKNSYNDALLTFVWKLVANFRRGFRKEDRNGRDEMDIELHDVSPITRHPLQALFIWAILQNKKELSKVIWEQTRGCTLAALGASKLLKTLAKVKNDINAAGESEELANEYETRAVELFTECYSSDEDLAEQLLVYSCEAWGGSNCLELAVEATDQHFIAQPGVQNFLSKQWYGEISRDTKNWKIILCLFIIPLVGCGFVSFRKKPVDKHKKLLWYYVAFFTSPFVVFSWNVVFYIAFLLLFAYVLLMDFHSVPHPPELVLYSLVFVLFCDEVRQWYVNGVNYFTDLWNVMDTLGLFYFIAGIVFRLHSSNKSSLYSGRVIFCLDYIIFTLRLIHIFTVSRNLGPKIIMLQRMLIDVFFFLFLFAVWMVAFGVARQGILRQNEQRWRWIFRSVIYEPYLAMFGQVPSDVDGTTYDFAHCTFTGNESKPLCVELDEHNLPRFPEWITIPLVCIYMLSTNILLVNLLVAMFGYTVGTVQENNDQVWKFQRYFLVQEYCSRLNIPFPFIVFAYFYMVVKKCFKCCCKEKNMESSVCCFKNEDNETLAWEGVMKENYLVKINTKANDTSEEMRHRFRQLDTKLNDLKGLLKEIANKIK

This assay deals with human TRPM8 (Homo sapiens (Human), UniProt Q7Z2W7). Briefly: TRPM8 inhibition assay (menthol-induced calcium influx, FDSS). Format: cell-based. The conditions noted are these: read-out: TRPM8 Blocking Test (IC50/nmol/L). Here is the method:
The functional activity of a test compound was determined by measuring change in intracellular calcium concentration using a calcium sensitive fluorescent dye. The change in fluorescent signal was measured by the cell imaging technology by Hamamatsu Photonics's Functional Drug Screening System (FDSS).
HEK293 cells stably expressing human TRPM8 were grown in a flask. On assay day, the culture medium was removed from the flask, and cells were washed with phosphate-buffered saline (PBS) and harvested with PBS containing 2 mmol/L of ethylenediaminetetraacetic acid disodium salt (EDTA-2Na). […] Subsequently, suspended 20,000 to 50,000 cells per well were incubated with a test compound (at varying concentrations) in each well at 37° C. for 20 minutes. Change in intracellular calcium concentration evoked by 100 μmol/L of menthol was measured for 2 minutes using FDSS. […] The concentration-response curve was generated using the average of quadruplicate wells for each data point.

Structures are written as SMILES.

With `Cc1c(N(Cc2ccc(OC(F)(F)F)cc2)S(=O)(=O)c2ccc(-c3ncn[nH]3)cc2)nc(C2CC2)c2ccccc12` [Example 19], the IC50 stood at 3.5 nmol/L.
